Where two headings read alike, the source gives them in different places.
Tests used:
[1] = BALB/c, mouse, in vivo, ip, 75 mg/kg/day
[2] = BALB/c, mouse, in vivo, ip
[3] = BALB/c, mouse, in vivo, ip, 75 mg/kg/day; remark: listed apart in the source
[4] = C57BL/6, mouse, in vivo, ip, 75 mg/kg/day
[5] = C57BL/6, mouse, in vivo, ip, 75 mg/kg/day; remark: listed apart in the source

Measured: Tox Controls Surv/Total

NC(=O)c1ncn([C@@H]2O[C@H](CO)[C@@H](O)[C@H]2O)n1 [Ribavirin]
3/3: [1] | [2] | [3] | [4] | [5]

Source: patent US7550150B2, “Methods of treating or preventing a disease, disorder or condition associated with a viral infection” (Barros Research Institute, priority 2005, dated 2009)
